Source: patent US20100104534A1, “HYDRAZIDO-PEPTIDES AS INHIBITORS OF HCV NS3-PROTEASE” (priority 2007, published 2010)

Amino acid sequences for entries named in this document (tags omitted). Residues count along the entry.
UniProt P27958, 1027-1657: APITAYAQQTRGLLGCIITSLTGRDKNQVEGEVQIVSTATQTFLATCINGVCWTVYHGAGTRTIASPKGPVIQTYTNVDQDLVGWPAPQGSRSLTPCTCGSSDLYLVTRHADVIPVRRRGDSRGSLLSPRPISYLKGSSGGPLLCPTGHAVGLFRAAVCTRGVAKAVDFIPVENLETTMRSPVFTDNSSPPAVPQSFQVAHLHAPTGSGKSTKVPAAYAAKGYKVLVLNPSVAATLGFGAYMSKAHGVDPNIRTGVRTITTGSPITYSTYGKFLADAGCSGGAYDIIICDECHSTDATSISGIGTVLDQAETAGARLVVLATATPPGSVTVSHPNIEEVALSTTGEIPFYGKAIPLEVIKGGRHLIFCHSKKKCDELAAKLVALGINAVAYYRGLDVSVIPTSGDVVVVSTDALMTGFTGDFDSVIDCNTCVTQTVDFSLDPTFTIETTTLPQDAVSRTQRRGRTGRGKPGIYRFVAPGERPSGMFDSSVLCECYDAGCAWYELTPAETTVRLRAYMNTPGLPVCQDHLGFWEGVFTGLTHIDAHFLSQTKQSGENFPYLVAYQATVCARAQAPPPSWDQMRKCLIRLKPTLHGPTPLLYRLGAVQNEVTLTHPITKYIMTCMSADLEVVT
UniProt P27958, 1658-1711: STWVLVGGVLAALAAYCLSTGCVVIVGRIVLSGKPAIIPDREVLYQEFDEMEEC

Target: Recombinant heterodimeric HCV NS3/NS4A protease (strain 1a) (Hepatitis C virus genotype 1a, UniProt P27958)
Test: Spectrophotometric (continuous) assay for HCV protease inhibitory activity
Assay type: biochemical
Details: chromogenic ester substrate, 30° C., pH 6.5

CCCN(NC(=O)[C@@H]1[C@@H]2[C@H](CN1C(=O)[C@@H](NC(=O)NC1(CS(=O)(=O)C(C)(C)C)CCCCC1)C1(C)CCCCC1)C2(C)C)C(=O)N[C@@H](C)c1ccccc1 [Compound 1]
Ki: < 200 nM

CCCN(NC(=O)[C@@H]1[C@@H]2[C@H](CN1C(=O)[C@@H](NC(=O)N[C@H](CN(C)S(C)(=O)=O)C(C)(C)C)C(C)(C)C)C2(C)C)C(=O)N[C@@H](C)c1ccccc1 [Compound 2]
Ki: < 200 nM

CCCN(NC(=O)[C@@H]1[C@@H]2[C@H](CN1C(=O)[C@@H](NC(=O)N[C@H](CN1C(=O)CC(C)(C)CC1=O)C(C)(C)C)C(C)(C)C)C2(C)C)C(=O)N[C@@H](C)c1ccccc1 [Compound 3]
Ki: < 200 nM

C[C@H](NC(=O)N(CC1CC1)NC(=O)[C@@H]1[C@@H]2[C@H](CN1C(=O)[C@@H](NC(=O)N[C@H](CN1C(=O)CC(C)(C)CC1=O)C(C)(C)C)C(C)(C)C)C2(C)C)c1ccccc1 [Compound 4]
Ki: 200 to 500 nM

CCCN(NC(=O)[C@@H]1[C@@H]2[C@H](CN1C(=O)[C@@H](NC(=O)N[C@H](CN1C(=O)C3CCC(C3)C1=O)C(C)(C)C)C(C)(C)C)C2(C)C)C(=O)N[C@@H](C)c1ccccc1 [Compound 5]
Ki: < 200 nM

C[C@H](NC(=O)N(CC1CC1)NC(=O)[C@@H]1[C@@H]2[C@H](CN1C(=O)[C@@H](NC(=O)N[C@H](CN1C(=O)C3CCC(C3)C1=O)C(C)(C)C)C(C)(C)C)C2(C)C)c1ccccc1 [Compound 6]
Ki: 200 to 500 nM

CCCN(NC(=O)[C@@H]1[C@@H]2[C@H](CN1C(=O)[C@@H](NC(=O)N[C@H](CN(C)S(=O)(=O)c1ccccn1)C(C)(C)C)C1CCCCC1)C2(C)C)C(=O)N[C@@H](C)c1ccccc1 [Compound 7]
Ki: 200 to 500 nM

CCCN(NC(=O)[C@@H]1[C@@H]2[C@H](CN1C(=O)[C@@H](NC(=O)N[C@H](CN1C(=O)C3CCC(C3)C1=O)C(C)(C)C)C(C)(C)C)C2(C)C)C(=O)OC(C)(C)C [Compound 8]
Ki: > 500 nM

CCCN(NC(=O)[C@@H]1[C@@H]2[C@H](CN1C(=O)[C@@H](NC(=O)N[C@H](CN1C(=O)C3CCC(C3)C1=O)C(C)(C)C)C(C)(C)C)C2(C)C)C(=O)NC(C)(C)C [Compound 9]
Ki: > 500 nM

CCCN(NC(=O)[C@@H]1[C@@H]2[C@H](CN1C(=O)[C@@H](NC(=O)N[C@H](CN1C(=O)C3CCC(C3)C1=O)C(C)(C)C)C(C)(C)C)C2(C)C)C(=O)NC1CCCCC1 [Compound 10]
Ki: > 500 nM

CCCN(NC(=O)[C@@H]1[C@@H]2[C@H](CN1C(=O)[C@@H](NC(=O)N[C@H](CN1C(=O)C3CCC(C3)C1=O)C(C)(C)C)C(C)(C)C)C2(C)C)C(=O)NC1CC1 [Compound 11]
Ki: > 500 nM

CCCN(NC(=O)[C@@H]1[C@@H]2[C@H](CN1C(=O)[C@@H](NC(=O)N[C@H](CN1C(=O)C3CCC(C3)C1=O)C(C)(C)C)C(C)(C)C)C2(C)C)C(=O)Nc1ccccc1 [Compound 12]
Ki: > 500 nM

CCCN(NC(=O)[C@@H]1[C@@H]2[C@H](CN1C(=O)[C@@H](NC(=O)N[C@H](CN1C(=O)C3CCC(C3)C1=O)C(C)(C)C)C(C)(C)C)C2(C)C)C(=O)CCc1ccccc1 [Compound 13]
Ki: > 500 nM

CCCN(NC(=O)[C@@H]1[C@@H]2[C@H](CN1C(=O)[C@@H](NC(=O)N[C@H](CN1C(=O)C3CCC(C3)C1=O)C(C)(C)C)C(C)(C)C)C2(C)C)C(=O)c1ccccc1 [Compound 14]
Ki: > 500 nM

CCCN(NC(=O)[C@@H]1[C@@H]2[C@H](CN1C(=O)[C@@H](NC(=O)N[C@H](CN1C(=O)C3CCC(C3)C1=O)C(C)(C)C)C(C)(C)C)C2(C)C)C(=O)C1CC1 [Compound 15]
Ki: > 500 nM

CCCN(NC(=O)[C@@H]1[C@@H]2[C@H](CN1C(=O)[C@@H](NC(=O)N[C@H](CN1C(=O)C3CCC(C3)C1=O)C(C)(C)C)C(C)(C)C)C2(C)C)C(C)=O [Compound 16]
Ki: > 500 nM
